Measurements published in ChEMBL document CHEMBL1128289, “Reductive chemistry of the novel hypoxia-selective cytotoxin 5-[N,N-bis(2-chloroethyl)amino]-2,4-dinitrobenzamide” (J Med Chem, 1995).

System: CHO-AA8
Experiment: Cytotoxicity in a growth inhibition assay against aerobic cultures of AA8 cells was determined
Assay type: functional, cell-based, Cricetulus griseus

Structure (SMILES)	IC50 [µM]
NC(=O)c1cc(N(CCCl)CCCl)c([N+](=O)[O-])cc1N	9.8
NC(=O)c1cc(N(CCCl)CCCl)c(N)cc1N	1
